Measurements taken from US10159685B2, “Vascular calcification” (Cambridge Enterprise Limited, priority 2016, dated 2018).

Experiments:
[1] = tested on: bovine vascular smooth muscle cells (bVSMCs); type: cell-based; conditions: 7 days, mean of three experiments
Description: The toxicity of the identified compounds to bovine VSMCs was measured using the MTT assay, which measures the activity of dehydrogenase enzymes of live cells. This assay can pick up both cell death and proliferation.
Then, the MTT assay was performed.

[2] = tested on: human monocyte-macrophages (HMMs); test: MTT toxicity assay, HMMs, seven days (Example 3); conditions: at a concentration of 100 μM, 7 days

For `OCCN(CCO)c1nc(N2CCCCC2)c2nc(N(CCO)CCO)nc(N3CCCCC3)c2n1` [Dipyridamol, dipyridamol], the “Cell viability of bVSMCs after seven days (MTT signal, relative to control)” value ([1]; 0.5 uM) was 74.66*, the “Cell viability of bVSMCs after seven days (MTT signal, relative to control)” value ([1]; 1 uM) was 74.62* and the “Cell viability of bVSMCs after seven days (MTT signal, relative to control)” value ([1]; 2 uM) was 74.09*. For the same compound, the “Cell viability of bVSMCs after seven days (MTT signal, relative to control)” value ([1]; 5 uM) was 76.71*, the “Cell viability of bVSMCs after seven days (MTT signal, relative to control)” value ([1]; 10 uM) was 87.97* and the “Cell viability of bVSMCs after seven days (MTT signal, relative to control)” value ([1]; 20 uM) was 99.34. The “Cell viability of bVSMCs after seven days (MTT signal, relative to control)” value ([1]; 50 uM) was 39.52*, the “Cell viability of bVSMCs after seven days (MTT signal, relative to control)” value ([1]; 100 uM) was 11.34* and the “Toxicity to HMMs (in words)” value [2] was “relatively innocuous”.

Read-outs that look alike come from different tables or passages of the source. Marks after values point to notes of the source that are not given here.
